Reference: patent USRE42462E1, “Carboxylic acid derivatives, their preparation and use” (Abbott GmbH & Co. KG, priority 1995, dated 2011)

Target: T1, ETB receptors (Cavia porcellus, UniProt H0VTF3)
T1 construct: Guinea pig cerebella were homogenized in a Potter-Elvejhem homogenizer; from tissue; host or cells: guinea pig cerebellum membranes
T1 sequence (H0VTF3 27-415): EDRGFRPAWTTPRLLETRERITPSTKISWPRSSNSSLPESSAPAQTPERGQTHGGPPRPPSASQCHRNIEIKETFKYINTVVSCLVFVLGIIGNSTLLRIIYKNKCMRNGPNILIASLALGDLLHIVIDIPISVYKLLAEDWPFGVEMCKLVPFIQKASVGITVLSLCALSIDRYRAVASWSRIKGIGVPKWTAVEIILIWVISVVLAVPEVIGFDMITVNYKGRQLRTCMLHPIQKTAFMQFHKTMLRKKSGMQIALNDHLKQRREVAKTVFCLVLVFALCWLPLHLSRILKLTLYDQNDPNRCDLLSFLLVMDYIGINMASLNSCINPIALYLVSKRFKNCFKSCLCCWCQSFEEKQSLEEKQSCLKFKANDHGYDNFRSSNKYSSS
Assay: ETB receptor binding assay ([125I]-RZ3, guinea pig cerebellar membranes)
Conditions: 25 pM [125I]-RZ3, 25° C., 30 min

Ki | Compound
57 nM | COc1nc(OC(C(=O)O)C(OC)(c2ccccc2)c2ccccc2)nc2c1CCO2 (centres unmarked) [Compound I-87]
29 nM | COc1cc(C)nc(OC(C(=O)O)C(OC)(c2ccccc2)c2ccccc2)n1 (centres unmarked) [Compound I-103]
